Measured values taken from patent US11414379B2, “SPAK kinase inhibitors as neuroprotective agents” (United States Government as represented by the Department …, priority 2018, dated 2022).

What was measured:
[1] = test system: KCCs sites-1/2 (KCC2 Thr906/1007 or KCC3 Thr991/1048) phosphorylation; assay: Phosphorylation immunoblot in HEK293 cells; type: cell-based, human; conditions: only at this concentration
Protocol: HEK293 (human embryonic kidney 293) cells were cultured on 10-cm-diameter dishes in DMEM supplemented with 10% (v/v) foetal bovine serum, 2 mM L-glutamine, 100 U/ml penicillin and 0.1 mg/ml streptomycin. HEK293 cells were transfected with a mixture of 20 μl of 1 mg/ml polyethylenimine (Polysciences) and 5-10 μg of plasmid DNA as described previously (Durocher et al., 2002). 36 hours post-transfection cells were stimulated with either control isotonic or hypotonic medium for a period of 30 minutes. […] Protein concentrations were determined using the Bradford method. […]
Protein samples (40 μg) were boiled in sample buffer for 5 min, resolved by 7.5% sodium dodecyl sulfate polyacrylamide-gel electrophoresis and electrotransferred onto a polyvinylidene difluoride membrane as previously described (Bhuiyan et al. (2017) Journal of cerebral bloodflow and metabolism: official journal of the International Society of Cerebral Blood Flow and Metabolism 37: 2780-2794; de Los Heros et al. (2014) The Biochemical journal 458: 559-573; Zhu et al. (2014) Molecular cancer 13: 31). […] After repeating the washing steps, signals were detected with enhanced chemiluminescence reagent. […] The densities of bands were measured with ImageJ. […]

[2] = In vivo pharmacokinetics (data not shown)

CCN1/C(=C\C2=CC(=C/C=C/c3sc4ccccc4[n+]3CC)/CC(C)C2)Sc2ccccc21 (centres unmarked)
concentration at which phosphorylation of KCCs site-1 was significantly inhibited [1]: 10 µM
in vivo pharmacokinetics [2]: unfavorable in vivo pharmacokinetics
